Measured values as given in ChEMBL document CHEMBL4261495, “Antitrypanosomal and antileishmanial activity of prenyl-1,2,3-triazoles” (Medchemcomm, 2017).

Experiment: Octanol/water partition coefficient, log P of the compound
Type: physicochemical

C[C@@H]1[C@H](O)[C@@H](C)/C=C/C=C/C=C/C=C/C=C/C=C/C=C/[C@H](O[C@@H]2O[C@H](C)[C@@H](O)[C@H](N)[C@@H]2O)C[C@@H]2O[C@](O)(C[C@@H](O)C[C@@H](O)[C@H](O)CC[C@@H](O)C[C@@H](O)CC(=O)O[C@H]1C)C[C@H](O)[C@H]2C(=O)O
logP: -2.49
